Results reported in patent US7718768B2, “Biologically active peptide [sequence]” (CMS Peptides Patent Holding Company Limited, priority 2001, dated 2010).

Assays:
Assay type in all cases: in vivo, BALB/c mice
mononuclear phagocyte [1] = experiment: carbon particle clearance test, phagocytotic activity of mononuclear phagocyte; parameters: key: α = (cube root of K)×(body weight ÷ liver+spleen weight); details: IFN-γ and IL-2 groups 3×10^5 IU/kg/day, X ± SD
Description: On the next day after the last test substance administration (day 16), the mice were injected with […] body weight India ink (5 times dilution with normal saline) from the tail vein.
One minute and five minutes after Indian ink injection, 20 μl blood was obtained from the eye can thus with a heparinized tubing. The blood was mixed with 2 ml 0.1% w/v Na2CO3 and then OD680nm obtained. The outline clear index K was calculated by the following formula: K=(lgA1−lgA2)÷(t2−t1) Key: A1: OD680nm at first minute A2: OD680nm at fifth minute t2: 5 minutes […]
(§1) One day after the last test substance administration (day 16), the liver, spleen, and thymus gland were separated and blotted dry with filter paper and weighed. The phagocytosis index α was calculated as below: α=(^3√K)(W÷WLS) key: W: body weight WLS: weight of liver plus spleen Thymus gland index(%)=(thymus weight/body weight)×100% Spleen index(%)=(spleen weight/body weight)×100%

[2] = immunity organ weight test (thymus gland index, spleen index); details: IFN-γ and IL-2 groups 3×10^5 IU/kg/day, X ± SD
Description: The above substances were all dissolved in 0.5 ml saline and injected intraperitoneal (i.p.) for 15 continuous days, once per day.
as §1

mononuclear phagocyte [3] = experiment: phagocytosis index in mice with transplanted S180 sarcoma; details: 3 × 10^5 IU/kg i.p. once per day
Description: (§2) Intraperitoneal injection, once per day. […] Treatment of all groups with testing substance lasted for 30 days or until the animal died unless otherwise specified.
(§3) Stock S180 sarcoma cells were incubated in DMEM/F12 medium supplemented with 10% fetal bovine serum, 37° C., 5% CO2 for 72 hrs, then washed 3-4 times with Hank's solution at room temperature. Adjust the cell concentration to 1-2×10^9 per liter with Hank's solution. […] The mice were killed by cervical vertebra dislocation. Vigorously growing and non-disrupted tumor masses were harvested and washed clean with sterile saline. The tissue was dispersed in saline to a homogenous cell suspension, in a ratio of 1 g tissue to 4 ml saline. The sarcoma bearing mice model was prepared with an injection of 0.2 ml cell suspension through the armpit. Administration of test substance treatment started as described in section Method 1.
2.1 The effect of peptides on the phagocytotic function of mononuclear phagocyte in mice with S180 sarcoma was analyzed by injecting mice from the tail vein with 0.1 ml/10 g body weight of Indian ink (1:5 dilution with normal saline) on the second day after the last test substance administration. […] The outline clear index K was calculated by the following formula: K=(lgA1−lgA2)÷(t2−t1) […]
1. The Phagocytosis Index α was Calculated as Below: α=(^3√K)×(W÷WLS)

S180 sarcoma cells = experiment: growth of transplanted S180 sarcoma; details: 3 × 10^5 IU/kg i.p. once per day
Description: as §2, §3
After the phagocytosis index study, the mice were killed by cervical vertebra dislocation. The liver, spleen, and cancer tissue were dissected, blotted dry, and weighed.
2.2 The Tumor Growth Inhibition Index was Calculated According to the Following Formula: Tumor growth inhibition index=(mean tumor weight of control group−mean tumor weight of treatment group)÷mean tumor weight of control group 3.

NK cell = NK cell activity in mice with ascitic fluid type liver cancer H22; details: 3 × 10^5 IU/kg i.p. once per day
Description: Healthy BALB/c mice were randomized into peptide group, rmIFN-γ group, rhIL-2 group, and saline group, 15 mice per group, and prepared into H22 carrying mice model as described in section Method 3. After implantation of the cancer cells, the test substances were administered for 15 days, the mice were killed by cervical dislocation. The spleen was isolated aseptically and manually dispersed in cold D-Hank's solution using an injection needle. The dispersed cell suspension was further sieved through a 100-gauge 150 μm diameter stainless steel sieve. After centrifugation at 200 g for 10 minutes, the supernatant was discarded. The cell pellet was re-suspended in 10 volume of Tris-NH4Cl buffer and then kept standing still for 10 minutes at room temperature. The suspended cells were collected by centrifugation at 150 g for 10 minutes. The cells were washed 2-4 times with cold D-Hank's solution by re-suspending and collecting by centrifugation with condition as described above. The washed cells were then diluted to the desired cell densities by RPMI-1640 culture medium, containing 10% fetal bovine serum.
Mice spleen cells were prepared to 4×10^6/ml as described in section 4.1 above. […]
Samples were centrifuged at 150 g for 10 minutes to collect the cells. […] An ELISA reader was used to obtain OD570nm of each well referenced at 630 nm. […]

[4] = peptide 0.5 μg/kg/day i.p. 15 days
[5] = peptide 5 μg/kg/day i.p. 15 days
[6] = peptide 50 μg/kg/day i.p. 15 days
[7] = peptide 500 μg/kg/day i.p. 15 days

## IL-2: recombinant human interleukin-2, Shanghai Huaxin Biotech Inc.; positive control immunostimulant
Mononuclear phagocyte [1]; [4]
  phagocytotic index: 5.7 ± 0.8
Mononuclear phagocyte [1]; [5]
  phagocytotic index: 5.7 ± 0.8
Mononuclear phagocyte [1]; [6]
  phagocytotic index: 5.7 ± 0.8
Mononuclear phagocyte [1]; [7]
  phagocytotic index: 5.7 ± 0.8
[2]; [4]
  weight of spleen (spleen index): 0.62 ± 0.07%
  weight of thymus gland (thymus gland index): 0.14 ± 0.04%
[2]; [5]
  weight of thymus gland (thymus gland index): 0.14 ± 0.04%
[2]; [6]
  weight of spleen (spleen index): 0.62 ± 0.07%
  weight of thymus gland (thymus gland index): 0.14 ± 0.04%
[2]; [7]
  weight of thymus gland (thymus gland index): 0.14 ± 0.03%
Mononuclear phagocyte [3]
  Phagocytosis index: 6.96 ± 1.37
S180 sarcoma cells
  Tumor weight: 0.69 ± 0.37 g
S180 sarcoma cells; versus saline group
  Tumor inhibition index: 46.2%
NK cell
  NK activity index: 26.0 ± 9.0%
